From publication PMC5329011 (Frontiers in Neuroscience, 2017)

Key:
apelin receptor [1] = target: T1, apelin receptor (Homo sapiens, UniProt P35414); assay: Competition binding with [Glp65,Nle75,Tyr77][125I]apelin-13 in human left ventricle homogenate; design: from tissue; host or cells: human left ventricle homogenate; details: single concentration 1 μM peptide
T1 sequence (P35414 1-380): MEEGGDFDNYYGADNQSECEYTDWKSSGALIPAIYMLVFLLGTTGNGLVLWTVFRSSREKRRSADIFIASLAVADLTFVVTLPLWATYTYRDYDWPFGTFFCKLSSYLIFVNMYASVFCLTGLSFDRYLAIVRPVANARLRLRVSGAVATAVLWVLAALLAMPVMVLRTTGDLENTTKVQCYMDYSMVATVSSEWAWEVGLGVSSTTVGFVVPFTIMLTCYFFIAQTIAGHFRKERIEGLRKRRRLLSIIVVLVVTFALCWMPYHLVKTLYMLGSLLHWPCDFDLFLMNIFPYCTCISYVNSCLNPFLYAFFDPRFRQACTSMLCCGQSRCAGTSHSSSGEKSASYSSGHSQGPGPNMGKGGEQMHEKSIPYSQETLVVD
Description: Assays were performed in human heart as previously described (Brame et al., [2015]). […] Equilibrium was broken by centrifugation (20,000 g for 10 min, 4°C) and pellets washed with Tris-HCl buffer (50 mmol/L, pH 7.4, 4°C), re-centrifuged and pellets counted for detection of bound radioactivity. Competition binding data were analyzed using GraphPad Prism 6 (GraphPad Software, Inc. La Jolla, CA, USA) to obtain values of pKi (the negative log10 of the dissociation constant derived from the IC50 for the competing ligands, the radioligand concentration and radioligand affinity by the Cheng and Prusoff equation). Experiments were performed in triplicate.
Measurements are mean ± standard error of the mean (SEM). […] Cell assay pD2 values were compared by one-way ANOVA followed by Tukey's multiple comparison test.

apelin receptor [2] = target: T1, apelin receptor; assay: Inhibition of forskolin-stimulated cAMP accumulation (DiscoverX); type: cell-based; details: R9P and P9M up to 10 μM
Description: (§1) Inhibition of cAMP accumulation, β-arrestin recruitment and receptor internalization by apelin isoforms, modified and truncated apelin peptides were studied using cells expressing the human apelin receptor (DiscoverX, CA, USA) as per the manufacturer's instructions. In all assays the resulting chemiluminescent signal was measured as relative light units (RLU) using a LumiLITE™ Microplate Reader (DiscoveRx, Fremont, CA). […] Agonist responses were expressed as a % of the forskolin response. […] Data were analyzed using a 4-parameter logistic equation using GraphPad Prism 6 to determine values of potency, pD2 (−log10 EC50, where EC50 is the concentration producing half maximal response) and maximum response (EMAX). n-Values are given as number of replicates/number of experiments.

apelin receptor [3] = target: T1, apelin receptor; assay: β-arrestin recruitment assay (DiscoverX); type: cell-based; details: at 300 μM
Description: as §1

Substance	% of specific binding competed for (apelin receptor [1]) [%]	extent of inhibition of cAMP production (apelin receptor [2])	completeness of β-arrestin concentration-response curve (apelin receptor [3])
apelin-13(P9M)	62	incomplete	incomplete
apelin-13(R9P)	38	incomplete	incomplete
